According to patent US10933061B2 (Shepherd Therapeutics, Inc., priority 2017, dated 2021):

Test system: Rh41 rhabdomyosarcoma cells
Experiment: Chou-Talalay combination assay, Cell Titer Glo
Assay type: cell-based
Conditions: combination with pyrvinium pamoate, 72 hour incubation

## COc1cccc2c1C(=O)c1c(O)c3c(c(O)c1C2=O)C[C@@](O)(C(=O)CO)C[C@@H]3O[C@H]1C[C@H](N)[C@H](O)[C@H](C)O1 [Doxorubicin]
  CI range: 0.101-0.831
